Assay results reported in ChEMBL document CHEMBL1124222 (J Med Chem, 1988).

Sequences of proteins named here, by UniProt entry; tags and fusion partners are left off.
UniProt P61169, whole entry: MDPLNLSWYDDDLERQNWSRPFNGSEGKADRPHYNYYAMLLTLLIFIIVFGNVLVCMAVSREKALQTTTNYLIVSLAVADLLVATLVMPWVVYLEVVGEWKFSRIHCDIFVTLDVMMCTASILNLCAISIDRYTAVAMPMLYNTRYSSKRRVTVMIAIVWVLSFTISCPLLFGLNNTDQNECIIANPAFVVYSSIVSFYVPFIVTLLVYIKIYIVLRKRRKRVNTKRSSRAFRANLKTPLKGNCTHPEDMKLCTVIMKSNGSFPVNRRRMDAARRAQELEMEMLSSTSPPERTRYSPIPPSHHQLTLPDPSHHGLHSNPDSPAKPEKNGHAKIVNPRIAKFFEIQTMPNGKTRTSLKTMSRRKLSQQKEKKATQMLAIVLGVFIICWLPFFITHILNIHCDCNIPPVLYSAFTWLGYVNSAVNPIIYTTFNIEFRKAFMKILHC

Target: D(2) dopamine receptor (Rattus norvegicus) (UniProt P61169)
Assay: Affinity constant of compound was evaluated in rat striatum tissue preparation.
Type: tissue-based

**Q.** How did the Bmax (pM (mg of protein)-1) turn out when `CCN1CCCC1CNC(=O)c1c(OC)ccc(I)c1O` (stereo unspecified) was run?
**A.** 0.48
